Compound activity (PubChem)
miR-122 sensor: miR-122 inhibition in Huh7 cells. actives 0.3% (n = 340,000). Huh7 miR-122 Renilla luciferase sensor, 48 h; neutral wells = 0, positive control = 100. activation (reporter increase), % at 12.5 µM;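 active = mean replicate activation score at least 90 and every replicate individually at or above 90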;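 note: higher luciferase means less miR-122 activity so hits act as miR-122 inhibitors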
MITF TRPM1 HTS: increases MITF-driven TRPM1 promoter luciferase signal | SK-MEL-5 TRPM1-promoter luciferase, 24 h; % of positive control, neutral wells = 0 | actives 0.75% (n = 300,000) | activation, % at 12.5 µM;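 active = mean activation of at least 80% with every replicate also reaching 80%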;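 note: 0% = neutral control wells and 100% = parthenolide positive control wells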
esBAF inh: blocks esBAF chromatin remodeling in mouse ES cells. AID 602393. actives 2% (n = 350,000). Bmi1-luciferase knock-in reporter, 24 h; 100% = twice the neutral-well signal. reporter increase, % at 12.5 µM; in the data active = activation above about 40%;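 note: 0% = median of the plate's neutral control wells and 100% = double that signal; a rise in the Bmi1 reporter signal indicates esBAF inhibition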
PglD DTNB: PglD (C. jejuni) enzyme inhibition. AID 602405. inhibition, % at 12.5 µM. actives 0.098% (n = 360,000). purified PglD enzyme, DTNB colorimetric CoA detection; in the data active = inhibition above about 16%, passing the limit was not always enough
Yeast UUG start-1: yeast start codon fidelity modulation. S. cerevisiae UUG-firefly luciferase reporter, luminescence/redox ratio. activity score, % at 18.7 µM. 0.13% of 350,000 active;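 active means replicate mean at a twofold rise or more, about +100% in these data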;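 further: firefly luciferase made from a UUG start codon reports start codon fidelity; reporter light over untreated wells divided by growth signal over untreated wells; some hits fall short of that in this replicate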
Wnt bcat act: activates Wnt/beta-catenin signaling in a reporter cell assay. activator, plate reader. activation, % at 9.35 µM. actives 1.2% (n = 300,000); in the data active = activation above about 30%, passing the limit was not always enough;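 note: 0% = neutral control wells and 100% = positive control wells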
Yeast UUG start-2: modulators of start codon recognition fidelity in yeast | shares compounds with Yeast UUG start-1 | S. cerevisiae UUG-start firefly luciferase, luminescence, 4 h; 100% means double the DMSO signal | activation, % at 38 µM | 540 tested, under 10 active;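 active = signal increase whose fitted curve reaches an absolute level of 40 at a concentration under 10 µM; inactive = activity opposite to the expected increase, or the rest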
* hit, by the source's call; i = inactive; x = not tested or not shown; [ ] = remark or other dose. Only some compounds are listed: those with a hit (about 2.8% of all), similar ones and a draw of the others.

SMILES	miR-122 sensor	MITF TRPM1 HTS	esBAF inh	PglD DTNB	Yeast UUG start-1	Wnt bcat act	Yeast UUG start-2
C[C@@H]1CN([C@@H](C)CO)C(=O)c2cc(NC(=O)Nc3ccccc3)ccc2O[C@@H](C)CCCCO[C@H]1CN(C)Cc1ccc2c(c1)OCO2	-7[16.7 µM]	x	-10	-2	3	x	x
C[C@@H]1CN([C@@H](C)CO)C(=O)c2cc(C#CCN(C)C)cnc2O[C@H]1CN(C)Cc1ccccc1F	0[16.7 µM]	x	3	-1	-16	x	x
O=C(N[C@@H]1CC[C@H](CCn2cc(C3(O)CCCC3)nn2)O[C@@H]1CO)C1CCCCC1	x	x	6	-3	7	x	x
O=C(N[C@H]1CC[C@H](CCn2cc(C3(O)CCCC3)nn2)O[C@H]1CO)C1CCCCC1	x	x	1	-6	162*	x	i
O=C(NCC[C@H]1CC[C@H](NC(=O)C2CCCCC2)[C@H](CO)O1)c1cnccn1	x	x	4	6	158*	x	i
O=S(=O)(N[C@H]1CC[C@@H](CCn2cc(C3(O)CCCC3)nn2)O[C@@H]1CO)c1ccc(F)cc1	x	x	-5	1	178*	x	i
C[C@@H]1CCCCO[C@H](CN(C)C(=O)Nc2ccc(F)cc2)[C@H](C)CN([C@H](C)CO)C(=O)c2cc(NC(=O)C3CCCCC3)ccc2O1	-9[16.7 µM]	x	1	1	19	x	x
CCOC(=O)N(C)C[C@H]1OCc2ccccc2-c2c(n(C)c3ccccc23)C(=O)N([C@@H](C)CO)C[C@H]1C	x	x	0	1	27	x	x
C[C@H](CO)N1C[C@H](C)[C@@H](CN(C)C(=O)c2ccccn2)Oc2ncc(Br)cc2C1=O	2[16.7 µM]	x	-1	3	202*	x	i
C/C=C/c1cnc2c(c1)C(=O)N([C@H](C)CO)C[C@H](C)[C@H](CN(C)C(=O)c1cnccn1)O2	3[16.7 µM]	x	4	-2	137*	x	i
C[C@H](CO)N1C[C@H](C)[C@H](CN(C)C(=O)CN(C)C)Oc2cc(C#CCC3CCCC3)ccc2S1(=O)=O	-4[16.7 µM]	x	3	0	107*	x	i
C[C@@H]1CN([C@H](C)CO)S(=O)(=O)c2ccc(C#CCC3CCCC3)cc2O[C@@H]1CN(C)C(=O)CN(C)C	-10[16.7 µM]	x	1	3	129*	x	i
CCOc1ccc(C(=O)NCC(=O)OCC(=O)c2ccc3c(c2)-c2ccccc2C3)cc1	0	23	1	x	x	0	x
COc1ccccc1C(=O)NCC(=O)OCC(=O)c1ccc2c(c1)-c1ccccc1C2	-2	18	-2	0	551*	-1	3
Cc1nn(CC#N)c(=O)n1-c1ccccc1F	0	-2	1	-6	-19	0	x
Cc1ccc(-n2c(C)nn(CC#N)c2=O)cc1	0	-2	-7	2	346*	1	-1
CCn1c(CCNC(=O)c2ccc(OC)cc2)nnc1SCC(=O)Nc1ccccc1F	120*	8	5	0	316*	2	1
O=C(C[C@@H]1CC[C@H](NC(=O)c2ccccc2)[C@H](CO)O1)NCc1ccncn1	x	x	-7	5	-6	x	x
C/C=C/c1ccc2c(c1)O[C@H](CN(C)Cc1ccc(C(=O)O)cc1)[C@H](C)CN([C@H](C)CO)S2(=O)=O	8[16.7 µM]	x	4	4	192*	x	i
CCCN(C)C[C@@H]1Oc2cc(C3=CCCCC3)ccc2S(=O)(=O)N([C@@H](C)CO)C[C@@H]1C	-3[16.7 µM]	x	-5	2	156*	x	i

Part of the list above in order of length of the SMILES, falling:
SMILES	miR-122 sensor	MITF TRPM1 HTS	esBAF inh	PglD DTNB	Yeast UUG start-1	Wnt bcat act	Yeast UUG start-2
C[C@@H]1CN([C@H](C)CO)S(=O)(=O)c2ccc(C#CCC3CCCC3)cc2O[C@@H]1CN(C)C(=O)CN(C)C	-10[16.7 µM]	x	1	3	129*	x	i
C[C@H](CO)N1C[C@H](C)[C@H](CN(C)C(=O)CN(C)C)Oc2cc(C#CCC3CCCC3)ccc2S1(=O)=O	-4[16.7 µM]	x	3	0	107*	x	i
Cc1ccc(-n2c(C)nn(CC#N)c2=O)cc1	0	-2	-7	2	346*	1	-1

Next compounds.
SMILES	miR-122 sensor	MITF TRPM1 HTS	esBAF inh	PglD DTNB	Yeast UUG start-1	Wnt bcat act	Yeast UUG start-2
C/C=C/c1ccc2c(c1)O[C@H](CN(C)Cc1ccc(C(=O)O)cc1)[C@@H](C)CN([C@H](C)CO)S2(=O)=O	-15[16.7 µM]	x	2	2	7	x	x
CCCN(C)C[C@@H]1Oc2cc(C3=CCCCC3)ccc2S(=O)(=O)N([C@@H](C)CO)C[C@H]1C	2[16.7 µM]	x	-2	x	x	x	x
C/C=C/c1ccc2c(c1)O[C@H](CN(C)C(=O)C1CCC1)[C@H](C)CN([C@H](C)CO)S2(=O)=O	-1[16.7 µM]	x	x	x	x	x	x
CCCN(C)C[C@H]1Oc2cc(/C=C/c3ccccc3)ccc2S(=O)(=O)N([C@H](C)CO)C[C@@H]1C	8[16.7 µM]	x	-3	-1	10	x	x
C/C=C/c1ccc2c(c1)O[C@H](CN(C)C(=O)C1CCCCC1)[C@H](C)CN([C@H](C)CO)S2(=O)=O	x	x	0	-1	201*	x	i
C/C=C/c1ccc2c(c1)O[C@@H](CN(C)CCC)[C@@H](C)CN([C@H](C)CO)S2(=O)=O	7[16.7 µM]	x	-6	2	85*	x	i
COCC(=O)N(C)C[C@@H]1Oc2cc(C3=CCCCC3)ccc2S(=O)(=O)N([C@H](C)CO)C[C@@H]1C	1[16.7 µM]	x	4	4	28	x	x
CCC(=O)N(C)C[C@H]1Oc2ncc(-c3ccccc3F)cc2C(=O)N([C@H](C)CO)C[C@H]1C	0[16.7 µM]	x	2	-2	-5	x	x
CO[C@@H](CN(C)Cc1cc(F)ccc1F)[C@H](C)CN([C@@H](C)CO)S(=O)(=O)c1ccc(Cl)cc1	x	x	-1	2	x	x	x
CCS(=O)(=O)Nc1ccc2c(c1)C(=O)N(C)[C@@H]1CC[C@H](CC(=O)Nc3ccccc3)O[C@H]1CO2	-5[16.7 µM]	x	0	3	9	x	x

By substructure, those above with a cyano group.
SMILES	miR-122 sensor	MITF TRPM1 HTS	esBAF inh	PglD DTNB	Yeast UUG start-1	Wnt bcat act	Yeast UUG start-2
Cc1nn(CC#N)c(=O)n1-c1ccccc1F	0	-2	1	-6	-19	0	x
Cc1ccc(-n2c(C)nn(CC#N)c2=O)cc1	0	-2	-7	2	346*	1	-1

Additional structures.
SMILES	miR-122 sensor	MITF TRPM1 HTS	esBAF inh	PglD DTNB	Yeast UUG start-1	Wnt bcat act	Yeast UUG start-2
O=C(CN1C(=O)c2ccccc2S1(=O)=O)c1ccc(O)c(O)c1	1	x	x	-8	165*	-1	-5
O=C(CN1C(=O)c2ccccc2S1(=O)=O)c1ccc(F)c(F)c1	4	-11	x	7	-29	10	x
C[C@@H]1CN([C@@H](C)CO)C(=O)c2cccc(NC(=O)C3CCOCC3)c2O[C@H]1CN(C)S(C)(=O)=O	-2[16.7 µM]	x	-3	-2	-14	x	x
C[C@H]1CN([C@@H](C)CO)C(=O)Cc2cc(NS(=O)(=O)c3ccc(Cl)cc3)ccc2O[C@@H]1CN(C)S(=O)(=O)c1ccc(F)cc1	-1[16.7 µM]	x	4	2	17	x	x
CCc1[nH]c(C)c(C(C)=O)c1C	-4	x	-5	6	416*	2	4
CC(=O)c1c(C)[nH]c(C)c1C(C)=O	-3	-4	-5	-3	-1	4	x
C[C@@H]1CN([C@@H](C)CO)C(=O)Cc2cc(NC(=O)C3CCCCC3)ccc2O[C@H]1CN(C)C(=O)NC1CCCCC1	7[16.7 µM]	x	3	4	47*	x	i
C[C@@H]1CN([C@H](C)CO)C(=O)c2cc(C#CC3(O)CCCC3)cnc2O[C@@H]1CN(C)C(=O)Nc1ccc2c(c1)OCO2	x	x	-14	-2	13	x	x
CC1(C)CC(=O)C2=C(C1)NC(=S)C(C#N)C21CCCCC1 (centres undefined)	-3	x	x	5	110*	-2	13
CC1CCN(C(=O)Cn2cc(C(=O)C3CC3)c3ccccc32)CC1	5	7	1	6	-17	x	-2
CCC(=O)c1cn(CC(=O)NCC2CCCO2)c2ccccc12 (centres undefined)	-12	x	-1	0	-13	-4	7
